Key:
[1] = test system: MCF7^HER2 breast cancer cells; experiment: Cell viability assay, fraction of cells affected (fa), MCF7^HER2; type: cell-based
Description: (§1) FIGS. 5(a)-(d) are a series of bar graphs summarizing results for in vitro treatment of cancer cell lines with free bivalent or liposomal multivalent Ab constructs. […] Fraction of cells affected (fa) was calculated as follows: fa=1−fu, where fu was the fraction of remaining viable cells calculated as the ratio of the absorbance readings from the MTT assay for treated and untreated groups. Data represent mean ±S.E.M. from 3 independent experiments. * and ^# denote P<0.05 as compared to the free Ab treatment (ANOVA and Scheffe test for post-hoc comparisons).
(§2) Cells (3,500 cells/well for LCC6^HER2 and MCF7^HER2, and 20-50,000 cells/well for Ramos and 20,000 cells/well for Z-138) were seeded in 96-well plates. In the case of LCC6^HER2 and MCF7^HER2 cells, treatment was added after an overnight incubation to allow cell adherence to plates. In the case of Ramos and Z-138 cells, treatment was added on the same day after seeding. Cell viability was determined using 3-(4,5-dimethylthiazol-2-yl)-2,5-diphenyltetrazolium bromide (MTT) as previously described ^28 or Alamar Blue added in 10 μL/well with an 18-h incubation before reading fluorescence in a Fluorstar (v 1.2) plate reader (BMG Labtechnologies, Offenburg, Germany).
(§3) To test if the biological activities of the Ab would be enhanced when presented in the multivalent format, the activity of the free, bivalent Ab was compared to that of the multivalent construct in the respective cancer cell lines. Standard cell viability assays were used to determine the fraction of cells affected (fa) upon treatment. For trastuzumab, testing was conducted in LCC6^HER2 and MCF7^HER2 breast cancer cell lines under various culture conditions (FIG. 5a, b).

[2] = test system: LCC6^HER2 breast cancer cells; experiment: Cell viability assay, fraction of cells affected (fa), LCC6^HER2; type: cell-based
Description: as §1, §2, §3

[3] = test system: HER2 and its downstream target Akt; experiment: Western blot analyses, LCC6^HER2; type: cell-based; conditions: 200 μg/mL, 5 days, reduced serum (0.1%)
Description: FIGS. 6(a)-6(b) are bar graphs and Western blot analyses showing modulation of cancer cell survival pathways by multivalent liposomal Ab constructs. […] The concentration of trastuzumab was 200 μg/mL. (b) Representative cell cycle analysis, DAPI staining and Western blot analyses of Z-138 cells after exposure to free or liposomal rituximab for 3 days. The concentration of rituximab was 15 μg/mL. […] For DAPI staining, yellow arrows indicate apoptotic morphology of DNA condensation or fragmentation associated with Z-138 cells exposed to various treatments. The scale bar is equivalent to 50 μm, and all images are shown at the same magnification.
The following antibodies were used in this study: anti-p-HER2-Tyr-1248/Tyr-1173; anti-HER2; anti-p-Akt-Ser-473 and anti-Akt (all were rabbit polyclonal, New England Biolabs) and anti-human β-actin (mouse monoclonal, Sigma). The secondary antibody was horseradish peroxidase-conjugated anti-mouse or anti-rabbit IgG (Promega, Madison, Wis.). Proteins were detected by enhanced chemiluminescence (Amersham Pharmacia Biotech, Buckinghamshire, England), and visualized after exposure to Kodak autoradiography film. Equivalent amounts of protein (30 μg/lane determined by Bradford assay) were resolved by 12% SDS-polyacrylamide pre-made gels (Bio-Rad).

[4] = test system: LCC6^HER2 breast tumor xenograft; experiment: In vivo efficacy, LCC6^HER2 breast tumor xenograft model; design: species or system mice; conditions: 1 mg/kg i.v. twice weekly for 5 weeks, from Day 18
[5] = mouse, in vivo, 100 mg/kg
[6] = 0.1% serum or heregulin, 5 days
[7] = 10% serum, 5 days, 1 mg/mL, data not shown
[8] = 0.1% serum or heregulin, 200 μg/mL

| Substance | fraction of cells affected (fa), maximum [1, 6] | fraction of cells affected (fa) ([1]; 10% serum, 5 days) | activity (fa) at 1 mg/mL, in words [1, 7] | fraction of cells affected (fa), maximum [2, 6] | fraction of cells affected (fa) ([2]; 10% serum, 5 days) | activity (fa) at 1 mg/mL, in words [2, 7] | expression of p-HER2 and total HER2 [3] | p-Akt level [3] | anti-tumor activity (tumor growth) [4] | circulation longevity of the liposome carrier [5] | fraction of cells affected (fa) [1, 8] | fa values compared to free trastuzumab, in words ([1]; 5 days, above 100 μg/mL) | fraction of cells affected (fa) [2, 8] | fa values compared to free trastuzumab, in words ([2]; 5 days, above 10 μg/mL) |
| --- | --- | --- | --- | --- | --- | --- | --- | --- | --- | --- | --- | --- | --- | --- |
| free trastuzumab: therapeutic antibody; target molecule HER2 | ≤ 0.2 | at most 0.12 | no improvement in the activity | ≤ 0.2 | at most 0.12 | no improvement in the activity | down-regulation | not capable of reducing | long-term tumor growth inhibition |  |  |  |  |  |
| liposomal trastuzumab: trastuzumab conjugated to DSPC/CHOL/DSPE-PEG2000/DSPE-PEG2000-MAL liposomes, Ab-to-lipid ratio 50-70 μg/μmol |  |  |  |  |  |  | complete loss | complete loss |  | did not significantly alter | ~0.7 | significantly higher | ~0.7 | significantly higher |

Source: US20080286350A1, “Formulation of Multivalent Antibody Constructs and Use of Same for Cancer Therapy” (BC CANCER AGENCY, priority 2004, published 2008)
